The chains behind the UniProt entries cited, without tags or fusion partners.
ATP-dependent Clp protease proteolytic subunit (Bacillus subtilis (strain 168)), P80244, UniProt P80244, whole entry, looked up: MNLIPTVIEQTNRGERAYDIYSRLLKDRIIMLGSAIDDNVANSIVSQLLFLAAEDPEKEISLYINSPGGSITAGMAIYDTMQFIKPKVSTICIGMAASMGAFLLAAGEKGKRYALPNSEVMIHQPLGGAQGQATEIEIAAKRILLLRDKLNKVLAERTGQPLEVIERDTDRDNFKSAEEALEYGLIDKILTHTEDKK

# Screens: PubChem, National Center for Advancing Translational Sciences (NCATS)
# Rows were chosen to be rich in hits. Some 3.7% of all compounds tested hit in one or more screens of this group.
# ClpP mod = qHTS Assay for Activators of ClpP; ATP-dependent Clp protease proteolytic subunit (Bacillus subtilis (strain 168)), P80244; purified B. subtilis ClpP, FRET peptide cleavage, 20 min; Potency, µM (top dose mostly 57.5 µM), for inactives: at the top dose activity change, negative = active; 340,000 compounds, 1.9% hits; AID 651965, 2013; active means well fitted falling curve with a large enough effect; inconclusive means small, poorly fitted or top-dose-only effect; inactive means no such curve, though single readings can be large or run the other way; further: potency means the concentration at half of the fitted maximal effect; the source files actives as falling curves though it sought activators and does not explain the sign; nearly all actives have a fitted effect of over 65% in size
#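 Buffer: 100 mM Tris/HCl pH8, 100 mM KCl, 0.05% low protease BSA, 2.5% glycerol, 0.01% Tween-20. ClpP 10 microg/mL final; 20 min RT; delta FRET normalized to ADEP and DMSO controls.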
# A549 viability = counter-screen for Nrf2 inhibitors: cytotoxicity in A549 cells; A549 ARE-Fluc cells, CellTiter-Fluor viability, 18-24 h; Potency, µM (series often up to 46 µM), for the others: at the highest dose activity change, negative = cytotoxicity, actives largely listed as inhibitors; 390,000 compounds, 0.16% hits; further: potency means the concentration at half of the fitted maximal effect; on the % scale 0 is the no-effect control and ±100 the full control effect
#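 A549 ARE-Fluc cells in 5% FBS OPTI-MEM, 5000 cells/well, rested 2 h then exposed to compounds in concentration-response for 18-24 h at 37 °C. Viability by CellTiter-Fluor fluorescence (Ex 405/Em 525) after 30 min; luciferase luminescence (BugLite, 15 min, RT) read afterwards.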
# IL-2 act = IL-2 activation; IL-2 activation reporter assay, cell-based qHTS; stimulated with anti-CD3/CD4/CD28 beads; in transgenic mouse T cells; activation, % (series mostly up to about 46 µM); 360,000 compounds, 0.065% hits; in the data active means activation above about 50%; inconclusive means mostly about 30% to 49%; further: 0% is about no effect
#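 Using fluorescent plate cytometry, EGFP and DsRed are detected in transgenic mouse T cells stimulated 18 h at 37 degrees C with antibody-coated beads after 60 min compound pretreatment.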
# Nrf2 block = inhibitors of Nrf2 signaling. A549 ARE-Fluc reporter, luciferase luminescence, 18-24 h. Potency, µM (titrated, usually from 46 µM), without a hit: at the top dose activity change, negative = inhibition, usual class: inhibitors. 360,000 compounds, 2.1% hits. AID 504444; further: potency means the concentration at half of the fitted maximal effect; on the % scale 0 is the no-effect control and ±100 the full control effect; nearly all actives have a fitted effect of over 60% in size
#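 Reporter: ARE-Fluc in A549. Exposure: 18-24 h, 37 °C, 5% CO2, 5% FBS OPTI-MEM. Readouts: fluorescent cytotoxicity (CellTiter-Fluor), then luminescent Nrf2 signal after BugLite.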
# miR-21 reporter = raises the signal of a miR-21 reporter; AID 2288; 340,000 tested, under 10 active; Potency, µM (doses to about 38.3 µM), inactives show at the top dose reporter change, positive = more light; HeLa miR-21 FLuc reporter, luciferase, 48 h; active = well fitted rising curve with a large enough effect; inconclusive = small, poorly fitted or top-dose-only effect; inactive = no such curve, though single readings can be large or run the other way;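 note: % of control where 0% means no effect; miR-21 action dims this reporter so a rising signal means less miR-21 action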
#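 HeLa cells stably expressing CMV-driven firefly luciferase with a downstream miR-21 binding sequence, endogenously expressing miR-21, were treated with titrations (up to about 40uM final) for 48 hours at 37 degree Celsius. Luciferase luminescence was read after lysis.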
# Nrf2 activator = Nrf2 pathway activation; AREc32 ARE-luciferase reporter (MCF7-derived line), luminescence, 24 h; Potency, µM (series often up to 46.1 µM), inactives show at the top dose activation, hits mostly activators; 410,000 compounds, 0.31% hits; further: potency means the concentration at half of the fitted maximal effect; % of control where 0% means no effect; nearly all actives have a fitted effect of over 65% in size
#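 AREc32 cells carrying an ARE-driven firefly luciferase, 1000 cells/well in OPTI-MEM with 5% FBS, dosed after overnight attachment and incubated 24 hr at 37 deg C. Steady-Glo luminescence read after 30 min at RT.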
# * hit, by the source's call; u = inconclusive; x = no result; [ ] = remark or other dose. Unless noted, the call rests on the fitted dose curve; in most records, active means well fitted curve in the direction sought with a large enough effect; inconclusive means small, poorly fitted or top-dose-only effect, or another doubt; inactive means no such curve, though single readings can be large; an effect the other way counts as inactive or inconclusive.
# Results follow in this order: Nrf2 activator, IL-2 act, miR-21 reporter, ClpP mod, A549 viability, Nrf2 block
CCc1ccc(C2=C(C)C(N3CCC(C(=O)NCc4ccc(C)o4)CC3)=NS2(=O)=O)cc1
 : -1%, x, -2%, 0%, u, 0%
Cc1ccc(C)c(NS(=O)(=O)c2cc(C(=O)N3CCc4ccccc4C3)ccc2Cl)c1
 : -1%, -2, 12%, 1%, -18%[1.84 µM], 18µM*
Cc1ccc(C(=O)OCC(=O)c2ccccc2)cc1
 : 0%, 1, -34%, 14µM*, 4%, u
Cc1ccc(C(=O)CC(=O)c2ccccc2)cc1
 : 15%, -1, -50%, 8%, 1%, u
CC(C)[C@H]1COCCS(=O)(=O)N1Cc1cccc([N+](=O)[O-])c1
 : x, x, x, 1%, x, x
CCC1CCCCN1CCCNC(=O)c1ccc2c(=O)n(CCOC)c(=O)[nH]c2c1 (centres undefined)
 : -1%, 2, 1%, x, -15%, -17%
CCN1CCCC1CNC(=O)c1ccc2c(=O)n(CCOC)c(=O)[nH]c2c1 (centres undefined)
 : 0%, 1, 2%, 32µM*, -4%, 2%
COCCn1c(=S)[nH]c2cc(C(=O)NCC3CCCO3)ccc2c1=O (centres undefined)
 : 0%, 0, 5%, 2%, -16%, -16%
COCCn1c(=O)[nH]c2cc(C(=O)NCC3CCCO3)ccc2c1=O (centres undefined)
 : 0%, -2, 6%, 28µM*, -11%, -22%
CCN(CC)C(=O)Cn1c(=O)n(CCCCCC(=O)NCc2ccc3c(c2)OCO3)c(=O)c2sccc21
 : 0%, x, -4%, -3%, 2%, -10%
O=C1c2ccccc2C(=O)c2c(Nc3ccc(CCO)cc3)ccc(O)c21
 : 4µM*, -3, 2%, 1%, u, u
Cc1nc(-c2ccccc2)sc1CCNC(=O)C(=O)Nc1ccc2c(c1)OCO2
 : -1%, x, -18%, 3%, -10%, x
Cc1nc2c(c(=O)n1CCC1=CCCCC1)c1nc3ccccc3nc1n2/N=C/c1ccco1
 : 0%, 1, -7%, -12%, -30%, u
CCCn1c(C)nc2c(c1=O)c1nc3ccccc3nc1n2CCC1=CCCCC1
 : 2%, 3, -3%, 32µM*, -14%, u
Cc1ccccc1N(CC(=O)N/N=C/c1ccc(N(C)C)cc1)C(=O)c1ccccc1
 : 4%, -4, -4%, 35µM*, -15%, 8%
CCN(CC)c1ccc(/C=N/NC(=S)NCc2ccco2)cc1
 : 0%, 1, 18%, 16µM*, -6%, -17%
CN(C)c1ccc(/C=N/NC(=S)NCc2ccccc2)cc1
 : 4%, -2, -39%, 18µM*, 4%, 0%
CC(C)(C)c1ccc(/C=N/NC(=S)NCc2ccccc2)cc1
 : 0%, -2, -6%, -2%, 6%, -9%
Cc1ccccc1N(CC(=O)N/N=C/c1ccccc1Cl)C(=O)c1ccccc1
 : 2%, -4, -3%, 0%, -17%, 5%
Cc1c(NC(=S)N/N=C/c2ccc(N(C)C)cc2)c(=O)n(-c2ccccc2)n1C
 : 2%, -3, -2%, 32µM*, -5%, -17%

# Look-ups from the results shown:
# miR-21 reporter, CCC1CCCCN1CCCNC(=O)c1ccc2c(=O)n(CCOC)c(=O)[nH]c2c1 (centres undefined) → 1%
# IL-2 act, Cc1nc2c(c(=O)n1CCC1=CCCCC1)c1nc3ccccc3nc1n2/N=C/c1ccco1 → 1
# Nrf2 block, Cc1c(NC(=S)N/N=C/c2ccc(N(C)C)cc2)c(=O)n(-c2ccccc2)n1C → -17%
# ClpP mod, COCCn1c(=O)[nH]c2cc(C(=O)NCC3CCCO3)ccc2c1=O (centres undefined) → 28µM*

# Remaining list, next part:
# Results follow in this order: Nrf2 activator, IL-2 act, miR-21 reporter, ClpP mod, A549 viability, Nrf2 block
CN1C(=S)N(c2cccnc2)C(=O)/C1=C\c1ccc(N(C)C)cc1
 : 1%, 1, 4%, x, -19%, -5%
Cc1c(N2C(=O)/C(=C\c3ccc(N(C)C)cc3)N(C)C2=S)c(=O)n(-c2ccccc2)n1C
 : 0%, 19, -3%, 1%, 15µM*, -9%
Cc1ccc2c(c1)N(C(=O)N1CCC(C(=O)NCc3ccccc3F)CC1)CC(C)O2 (centres undefined)
 : 3%, x, -17%, 1%, 5%, u
O=C(/C=C/Nc1ccccc1)c1ccccc1
 : 10µM*, 0, -43%, 0%, -3%, u
CCOC(=O)c1ccccc1N/C=C/C(=O)c1ccccc1
 : 10µM*, -1, x, 5%, -1%, u

# In a second layout: entries from further up.
Compound	Nrf2 activator	IL-2 act	miR-21 reporter	ClpP mod	A549 viability	Nrf2 block
Cc1nc2c(c(=O)n1CCC1=CCCCC1)c1nc3ccccc3nc1n2/N=C/c1ccco1	0%	1	-7%	-12%	-30%	u
CCCn1c(C)nc2c(c1=O)c1nc3ccccc3nc1n2CCC1=CCCCC1	2%	3	-3%	32µM*	-14%	u
